Measured values: patent US20170354148A1, “SAFENED HERBICIDAL COMPOSITIONS CONTAINING HALAUXIFEN AND METHODS OF USE THEREOF IN BRASSICA SPECIES” (Dow AgroSciences LLC, priority 2016, published 2017)

Tests used:
[1] = test system: Spring Argentine canola (Brassica napus, BRSNS); experiment: Example 3 field trials (Canada), postemergence crop safety, visual phytotoxicity
[2] = test system: Aparima Gold swede (Brassica sp., BRSSS); experiment: Example 2 field trials (Canterbury, New Zealand), postemergence crop safety, visual phytotoxicity; conditions: 22DAA1, 3.75 g ae/ha

For `COC(=O)c1nc(-c2ccc(Cl)c(OC)c2F)cc(N)c1Cl` [Halauxifen-methyl, methyl 4-amino-3-chloro-6-(4-chloro-2-fluoro-3-methoxyphenyl)-2-pyridineccarboxylate], the “Mean % Visual Deformation” value ([1]; BRSNS, 60DAA1, 10 g ae/ha) was 13.8%, the “Mean % Visual Injury” value ([1]; BRSNS, trial 4, 15DAA1, 5 g ae/ha) was 26.3% and the “Mean % Visual Injury” value ([1]; Table 23, 32DAAA, halauxifen-methyl 5, clopyralid-olamine 150 g ae/ha, alone or mixed) was 21.3%. The “Mean % Visual Injury” value ([1]; Table 24, 32DAAA, halauxifen-methyl 5, clopyralid-olamine 150 g ae/ha alone, or both mixed with isoxadifen-ethyl 20 g ae/ha) was 21.3%, the “Mean % Visual Injury” value ([1]; Table 27, 32DAAA, halauxifen-methyl 5, quinclorac 101 g ae/ha, alone or mixed) was 21.3% and the “Mean % Visual Injury” value ([1]; Table 28, 32DAAA, halauxifen-methyl 5, clopyralid-olamine 150, quinclorac 101 g ae/ha, alone or mixed) was 21.3%. The “Mean % Visual Growth Inhibition” value ([1]; Trial 9, 6DAA1, halauxifen-methyl 5, clopyralid-olamine 150 g ae/ha, alone or mixed) was 16.3% and the “Mean % Visual Growth Inhibition” value [2] was 16.3%.
